The target in the assay is human A1AdoR (Homo sapiens (Human), UniProt P30542). Briefly: Competition binding, [3H]DPCPX/[3H]CPX sites on CHO-hA1AdoR cell membranes. The following applies: undefined bracketed value, possibly Hill slope.

Amino acid sequences for entries named in this document (tags omitted).
UniProt P30542, whole entry: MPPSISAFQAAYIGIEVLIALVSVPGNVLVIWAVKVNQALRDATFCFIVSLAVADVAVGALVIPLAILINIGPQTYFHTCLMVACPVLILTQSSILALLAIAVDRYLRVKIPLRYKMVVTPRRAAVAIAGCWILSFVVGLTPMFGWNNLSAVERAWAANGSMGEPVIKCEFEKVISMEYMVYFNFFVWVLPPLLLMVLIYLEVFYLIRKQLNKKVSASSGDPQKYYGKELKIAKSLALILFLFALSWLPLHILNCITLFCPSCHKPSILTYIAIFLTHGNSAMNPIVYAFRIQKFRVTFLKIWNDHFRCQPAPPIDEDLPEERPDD

SMILES strings stand for the structures.

This note sets out measurements from patent USRE47351E1 (Gilead Sciences, Inc., priority 1999, dated 2019).

For the compound `CCNC(=O)[C@H]1O[C@@H](n2cnc3c(N)ncnc32)[C@H](O)[C@@H]1O` [NECA, 5′-N-ethylcarboxamidoadenosine, reference compound], the “Value in square brackets below binding affinity, CHO-hA1AR (not defined in the patent)” value was “[0.88 ± 0.03]”.
